For this assay, the system named is Chronic Constriction Injury (CCI) rats, thermal hyperalgesia. Nature of the assay: Test C: Neuropathic pain model (Chronic Constriction Injury), thermal hyperalgesia paw-withdrawal. The class given is in vivo. The settings on record: Rattus norvegicus, po. The text has this:
Test C: Neuropathic Pain Model (Chronic Constriction Injury):
(Mean of vehicle group−Mean of compound group)/(Mean of vehicle group)×100

SMILES strings stand for the structures.

1 compound from patent publication US20030162783A1 (priority 1999, published 2003) can be followed below.

With `O=c1c2ccc(Cl)cc2[nH]c2c(O)nn(Cc3ccoc3)c(=O)c12` [Ex. 10, 7-Chloro-4-hydroxy-2-(furan-3-ylmethyl)-1,2,5,10-tetrahydropyridazino[4,5-b]quinoline-1,10-dione], for the setting “120 h, read-out: Test C MED (minimum effective dose)”, the minimal effective dose was found to be 30 mg/kg/day. Besides, the inhibition in vivo at 30 mg/kg/day (read-out: Test C (% Inh.): percent decrease in hyperalgesia at the MED) was 41%.
